Screens: PubChem BioAssay, Broad Institute
Sampled rows, rich in hits. Any-hit rate of the full collection: about 1%.
Statin myotox sup – protects C2C12 myotubes from simvastatin toxicity | ATP luminescence, 48 h; scaled: DMSO 0, geranylgeraniol control 100 | rescue of ATP level, % at 7.49 µM | 330,000 tested, 0.78% active;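 active = mean ATP rescue above about 67%, or every replicate alone reaching that limit, limit read from the data, passing the limit was not always enough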;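 also: myotubes were challenged with 10 µM simvastatin during compound exposure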
Cneo AK release – causes C. neoformans cell lysis; adenylate kinase release luminescence, 4 h; normalised: neutral wells 0, clomiphene wells 100; lysis activity, % at 15 µM; 360,000 tested, 0.2% active; AID 651654;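 active = mean lysis activity across replicates of at least 80%, whatever share of replicates individually reach that level; inactive = mean lysis activity below 80%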
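Material – log-phase Cryptococcus neoformans yeast cells · Input – 5 × 10^6 yeast cells/mL · Medium – fresh YPD growth medium · Doses – single compound concentration per well · Timing – static 4 h at 37 °C with compound, 1 h detection · Detection – adenylate kinase release luminescence · Read-out – signal increase indicating cell lysis · Control set – Clomiphene as positive lysis control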
Rtt109 HAT inh – blocks Candida albicans Rtt109/Vps75 acetyltransferase activity | inhibition, % at 34.9 µM | 330,000 tested, 0.16% active | purified Rtt109/Vps75, ThioGlo CoA-SH fluorescence, 4 h;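 active = inhibition of at least 50% in every replicate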
Yeast UUG start-1 – modulators of yeast start codon fidelity, primary screen, whole organism, S. cerevisiae, single point, plate reader | activity score, % at 18.7 µM | 350,000 tested, 0.13% active | S. cerevisiae UUG-firefly luciferase reporter, luminescence/redox ratio;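 active means replicate mean at a twofold rise or more, about +100% in these data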;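 further: firefly luciferase made from a UUG start codon reports start codon fidelity; reporter light over untreated wells divided by growth signal over untreated wells; some hits fall short of that in this replicate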
CDK5 inh – inhibitors of human CDK5/p35 kinase | Q00535+Q15078 | Recombinant CDK5/p35, ADP-Glo luminescence, 60 min | inhibition, % at 10 µM | 330,000 tested, 0.01% active;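 active = highest replicate inhibition of at least 50% and at least 75% of replicates reaching 50%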;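 also: plate controls were DMSO neutral control for no effect and GW8510 at 10 µM for full effect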
Yeast UUG start-2 – yeast start codon fidelity modulation | shares compounds with Yeast UUG start-1 | S. cerevisiae UUG-start firefly luciferase, luminescence, 4 h; 100% means double the DMSO signal | activation, % at 38 µM | 540 tested, under 10 active | AID 652061;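 active = signal increase whose fitted curve reaches an absolute level of 40 at a concentration under 10 µM; inactive = activity opposite to the expected increase, or the rest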
The depositor's hits bear a star; i = inactive; . = no result given.

Short forms: A = Statin myotox sup; B = Cneo AK release; C = Rtt109 HAT inh; D = Yeast UUG start-1; E = CDK5 inh; F = Yeast UUG start-2
> O=C(C[C@@H]1CC[C@H]2[C@@H](COC[C@@H](O)CN2Cc2cccc(-c3ccncc3)c2)O1)N1CCOCC1
  A = -7.8 | B = 2.4 | C = . | D = . | E = . | F = .
> O=C(C[C@@H]1C=C[C@@H](NC(=O)C2CCC2)[C@H](CO)O1)NCc1ccncc1
  A = -0.3 | B = -0.3 | C = . | D = 4.3 | E = . | F = .
> COc1ccc(CCNS(=O)(=O)c2ccc(Br)cc2)cc1
  A = 11.5 | B = -0.4 | C = 5.8 | D = -10.7 | E = 0.6 | F = .
> COc1ccc(CCNS(=O)(=O)c2cnc(Cl)c(Br)c2)cc1OC
  A = . | B = 1.9 | C = -0.1 | D = -10.8 | E = 0.6 | F = .
> COc1ccc(CCNS(=O)(=O)c2ccc3c(c2)OCCO3)cc1OC
  A = . | B = . | C = -1.4 | D = . | E = 0.8 | F = -3.1
> COc1ccc(CCNS(=O)(=O)c2ccc3c(c2)CCCC3)cc1OC
  A = 7.7 | B = -0.4 | C = -0.2 | D = -4.6 | E = -0.6 | F = .
> COc1ccc(S(=O)(=O)NCCc2ccc(OC)c(OC)c2)cc1Cl
  A = . | B = . | C = . | D = . | E = . | F = i
> COc1ccc(CCNS(=O)(=O)c2cccc(F)c2)cc1OC
  A = 30.3 | B = 0.2 | C = 27.5 | D = 0.1 | E = 1.0 | F = 1.0
> COc1ccc(S(=O)(=O)NCCc2ccccc2)cc1
  A = -6.6 | B = 0.4 | C = -2.0 | D = 10.2 | E = -0.9 | F = -0.2
> C[C@@H]1CN([C@@H](C)CO)C(=O)c2cc(NC(=O)C3CC3)ccc2O[C@@H]1CN(C)Cc1ccncc1
  A = 3.8 | B = -4.1 | C = . | D = -1.0 | E = . | F = .
> COc1ccc(CCNS(=O)(=O)c2cccc(C)c2)cc1OC
  A = 25.3 | B = -1.6 | C = 5.5 | D = -7.1 | E = 2.7 | F = 8.5
> COc1ccc(CCNS(=O)(=O)c2cccc(S(=O)(=O)N3CCCC3)c2)cc1OC
  A = 13.3 | B = 19.9 | C = -10.6 | D = 13.8 | E = -2.3 | F = .
> CC1CCN(C(=O)Cn2cc(C#N)c3ccccc32)CC1
  A = 4.0 | B = -2.5 | C = -1.8 | D = -8.2 | E = 1.0 | F = .
> CC1CCN(C(=O)Cn2cc(C(=O)C3CC3)c3ccccc32)CC1
  A = -8.0 | B = 2.6 | C = -6.6 | D = -16.7 | E = 0.1 | F = -2.3
> CCC(=O)c1cn(CC(=O)NCC2CCCO2)c2ccccc12 (configuration not stated)
  A = . | B = 0.7 | C = 5.1 | D = -13.5 | E = -1.0 | F = 7.0
> O=C(Cn1cc(C(=O)c2cccs2)c2ccccc21)NCC1CCCO1 (configuration not stated)
  A = 3.6 | B = -1.4 | C = 0.7 | D = -22.8 | E = -2.4 | F = -5.0
> Cc1cc(SCC(=O)NCC2CCCO2)nc2ccccc12 (configuration not stated)
  A = 3.2 | B = -0.2 | C = -0.6 | D = 146.0* | E = -0.1 | F = -6.9
> O=Cc1cn(CC(=O)NCC2CCCO2)c2ccccc12 (configuration not stated)
  A = 4.2 | B = -1.9 | C = 2.9 | D = -6.7 | E = -0.2 | F = .
> Cc1cc(SCC(=O)NC2CC2)nc2ccccc12
  A = 6.6 | B = 0.2 | C = -0.9 | D = -14.0 | E = 0.0 | F = .
> Cc1ccccc1S(=O)(=O)N1C[C@@H](O)COC[C@H]2O[C@@H](CC(=O)NCc3ccccc3Cl)CC[C@@H]21
  A = -5.0 | B = -1.6 | C = . | D = 13.4 | E = . | F = .
> COc1cccc(CNC(=O)C[C@@H]2C=C[C@H](NC(=O)C3CCOCC3)[C@@H](CO)O2)c1
  A = 7.2 | B = 4.6 | C = . | D = -8.3 | E = . | F = .
> O=C(Cn1cc(C(=O)C2CCCCC2)c2ccccc21)NCC1CCCO1 (configuration not stated)
  A = -4.0 | B = 1.3 | C = 5.5 | D = -15.5 | E = -1.3 | F = -12.6
> CCN(CC)C(=O)C(=O)c1cn(CC(=O)NCC2CCCO2)c2ccccc12 (configuration not stated)
  A = . | B = . | C = 4.0 | D = . | E = 0.6 | F = .
> CN(C)C(=O)C[C@@H]1C[C@@H]2c3cc(NC(=O)Nc4ccccc4F)ccc3O[C@@H]2[C@@H](CO)O1
  A = -0.5 | B = 0.4 | C = . | D = 126.9* | E = . | F = i
> CN(C)CC(=O)Nc1ccc2c(c1)[C@@H]1C[C@@H](CC(=O)NCc3cccc(F)c3)O[C@H](CO)[C@@H]1O2
  A = 9.7 | B = 0.1 | C = . | D = 5.0 | E = . | F = .
> CN(C)C(=O)C[C@H]1C[C@H]2c3cc(NC(=O)Nc4ccccc4F)ccc3O[C@H]2[C@H](CO)O1
  A = 4.5 | B = 1.3 | C = . | D = -0.5 | E = . | F = .
> CN(C)C(=O)C[C@@H]1C[C@H]2c3cc(NC(=O)Nc4ccccc4F)ccc3O[C@H]2[C@H](CO)O1
  A = 7.5 | B = -3.8 | C = . | D = 47.2* | E = . | F = i
> CN(C)CC(=O)Nc1ccc2c(c1)[C@@H]1C[C@@H](CC(=O)NCc3cccc(F)c3)O[C@@H](CO)[C@@H]1O2
  A = -0.5 | B = 0.5 | C = . | D = 54.5* | E = . | F = i
> CN(C)C(=O)C[C@H]1C[C@@H]2c3cc(NC(=O)Nc4ccccc4F)ccc3O[C@@H]2[C@@H](CO)O1
  A = -9.0 | B = 0.6 | C = . | D = -0.6 | E = . | F = .

Single records, from the list above. Values in the order: Statin myotox sup | Cneo AK release | Rtt109 HAT inh | Yeast UUG start-1 | CDK5 inh | Yeast UUG start-2
`CN(C)C(=O)C[C@H]1C[C@H]2c3cc(NC(=O)Nc4ccccc4F)ccc3O[C@H]2[C@H](CO)O1` is listed as 4.5 | 1.3 | . | -0.5 | . | .
`O=C(Cn1cc(C(=O)c2cccs2)c2ccccc21)NCC1CCCO1` (configuration not stated) is listed as 3.6 | -1.4 | 0.7 | -22.8 | -2.4 | -5.0
